Test results reported in patent US10525046B2 (ACADIA Pharmaceuticals Inc., priority 2003, dated 2020).

Protein sequences, listed by entry. Tags and fused reporters are not part of them.
UniProt P28223, whole entry: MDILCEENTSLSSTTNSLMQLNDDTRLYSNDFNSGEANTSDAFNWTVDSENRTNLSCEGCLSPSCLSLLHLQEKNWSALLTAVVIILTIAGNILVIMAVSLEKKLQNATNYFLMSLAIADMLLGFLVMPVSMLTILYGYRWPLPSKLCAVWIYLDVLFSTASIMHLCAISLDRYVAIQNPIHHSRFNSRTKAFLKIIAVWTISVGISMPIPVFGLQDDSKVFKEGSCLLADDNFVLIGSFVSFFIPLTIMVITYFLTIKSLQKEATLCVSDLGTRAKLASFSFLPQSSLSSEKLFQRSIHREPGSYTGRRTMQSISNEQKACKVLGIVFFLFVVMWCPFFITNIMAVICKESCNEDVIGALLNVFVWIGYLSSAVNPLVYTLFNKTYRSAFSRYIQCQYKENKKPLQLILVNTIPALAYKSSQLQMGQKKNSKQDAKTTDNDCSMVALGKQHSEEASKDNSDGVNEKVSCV

Target: human 5HT2A receptors (Homo sapiens, UniProt P28223)
Experiment: cell-based

For `CCCN1CCC[C@@H]2Cc3n[nH]cc3C[C@H]21` [quinpirole], which EC50 is on record?
The EC50 was 174 nM.
